# OPERA 2.9 data: properties

Source: data files of OPERA 2.9 (Mansouri et al.), github.com/kmansouri/OPERA.

The melting point is given in degrees Celsius. The boiling point refers to atmospheric pressure (760 mmHg), by the definition of the set. logP is the log10 of the octanol-water partition coefficient; higher is more lipophilic. Solubility in water is on a log10 molar scale (set defined at 25 °C). Vapor pressure is log10 of mmHg; the set covers 15 to 30 °C, mostly 20 to 25 °C. The unbound fraction in human plasma runs from 0 (all bound) to 1 (all free). Intrinsic clearance (human, µL/min per 10^6 hepatocytes): higher is faster turnover, and 0 stands for none detected.

For CC(C)NC(=N)NC(=N)Nc1ccc(Cl)cc1 [Chlorguanide] the data give log solubility -2.948 (log10 mol/L) and fraction unbound 0.15.
For C[C@@H]1O[C@@]2(CS1)CN1CCC2CC1 [Cevimeline] the data give log Kow 1.3 and log solubility -1.918 (log10 mol/L) and fraction unbound 0.85.
For CCCc1nc(C)c2c(=O)nc(-c3ccccc3OCC)[nH]n12 the data give mp 144.1 °C and log Kow 3.9 and log solubility -4.656 (log10 mol/L).
For CCCCCCOC(=O)/N=C(/N)c1ccc(NCc2nc3cc(C(=O)N(CCC(=O)OCC)c4ccccn4)ccc3n2C)cc1 [Dabigatran etexilate] the data give mp 180 °C and log solubility -2.543 (log10 mol/L).
For CCc1c(Cl)cc(NC(=O)C(CC)Oc2ccc(C(C)(C)CC)cc2C(C)(C)CC)c(O)c1Cl (stereo unspecified) the data give mp 145.4 °C and log solubility -6.52 (log10 mol/L) and log vapor pressure -8.547 (log10 mmHg).
For CCCCC(O)C(N)CC (stereo unspecified) [4-Octanol, 3-amino-] the data give mp 21.5 °C and BP 217.9 °C and log Kow 1.3 and log vapor pressure -1.52 (log10 mmHg).
For CC(CC(C)(C)C1CCCCC1)C1CCCCC1 (stereo unspecified) [Cyclohexane, 1,1'-(1,1,3-trimethyl-1,3-propanediyl)bis-] the data give log solubility -6.7 (log10 mol/L) and log vapor pressure -3.236 (log10 mmHg).
For CCC1(C)Nc2cccc3cccc(c23)N1 [2-Ethyl-2-methyl-2,3-dihydroperimidine] the data give mp 24 °C and log Kow 2.61 and log solubility -3.248 (log10 mol/L) and log vapor pressure -5.121 (log10 mmHg).
For CCCCc1ccc(N)cc1 [4-butylaniline] the data give fraction unbound 0.0599 and Clint 26.4 µL/min/10^6 cells.
For CCCC1CCC(c2ccc(OCC)c(F)c2F)CC1 (stereo unspecified) [1-Ethoxy-2,3-difluoro-4-(4-propylcyclohexyl)benzene] the data give mp 60.6 °C and BP 337 °C and log solubility -6.337 (log10 mol/L) and log vapor pressure -5.952 (log10 mmHg).
For Cc1ccc(C(=O)OC[C@@H]2O[C@H](n3cc(C)c(=O)[nH]c3=O)C[C@H]2OC(=O)c2ccc(C)cc2)cc1 the data give mp 198.7 °C and log Kow 4.4 and log solubility -7.449 (log10 mol/L).
For COC(=O)[C@@H]1CCC[C@H](C)C1 (relative stereo) the data give BP 200 °C and log Kow 3.7 and log solubility -2.624 (log10 mol/L) and log vapor pressure 0.306 (log10 mmHg).
For O=C1c2ccc3c4ccc5c6c(ccc(c7ccc(c2c37)C(=O)N1CCc1ccccc1)c64)C(=O)N(CCc1ccccc1)C5=O the data give log Kow 1.6 and log solubility -8.238 (log10 mol/L).
For O=C(ON1C(=O)CCC1=O)ON1C(=O)CCC1=O [Di(succinimido) carbonate] the data give log Kow -0.878 and log vapor pressure -6.058 (log10 mmHg).
For ClC1=C(Cl)[C@]2(Cl)C(Cl)=C(Cl)[C@H]3[C@H]1[C@H](Cl)C[C@H]32 [Alpha-Chlordene] the data give log Kow 5.66 and log vapor pressure -4.602 (log10 mmHg).
For COc1ccc(C)cc1C(CC(=O)O)c1ccccc1 (stereo unspecified) [3-(2-Methoxy-5-methylphenyl)-3-phenylpropanoic acid] the data give log Kow 2.44 and log solubility -4.28 (log10 mol/L) and log vapor pressure -7.985 (log10 mmHg).
For Cc1ccccc1C(OCCN(C)C)c1ccccc1 (stereo unspecified) [Orphenadrine] the data give log solubility -3.953 (log10 mol/L) and Clint 0.723 µL/min/10^6 cells.
For O=C1CCC(C2CCC(c3ccc(F)c(F)c3)CC2)CC1 (stereo unspecified) the data give log Kow 5.3 and log solubility -5.187 (log10 mol/L) and log vapor pressure -5.895 (log10 mmHg).
For Fc1cc(OC(F)(F)c2c(F)cc(Br)cc2F)cc(F)c1F the data give mp 45.4 °C and BP 296 °C and log vapor pressure -3.628 (log10 mmHg).
For O=S1(=O)CCCO1 [1,3-Propane sultone] the data give log Kow -0.28 and log vapor pressure -2.444 (log10 mmHg).
For CC1(C)COP(=O)(NCCNP2(=O)OCC(C)(C)CO2)OC1 the data give mp 258.5 °C and BP 274 °C and log Kow 1 and log solubility -2.764 (log10 mol/L).
For COc1nc(N)nc2c1ncn2[C@@H]1O[C@H](CO)[C@@H](O)[C@@H]1O [Nelarabine] the data give log Kow -1 and log solubility -1.33 (log10 mol/L).
For CC(C)(C)Cl [t-Butylchloride] the data give log Kow 2.38 and log solubility -1.507 (log10 mol/L) and log vapor pressure 2.482 (log10 mmHg).
For O=C(OCC1CCC2OC2C1)C1CCC2OC2C1 (stereo unspecified) [ECC] the data give log Kow 1.34 and log solubility -1.26 (log10 mol/L) and log vapor pressure -4.824 (log10 mmHg).
For CC(=O)OCC1=C(C(=O)O)N2C(=O)[C@@H](NC(=O)[C@H](N)c3ccccc3)[C@H]2SC1 [Cephaloglycin] the data give log Kow -0.3 and log solubility -3.438 (log10 mol/L).
For O=C(O)CCCCO/N=C(/c1cccnc1)c1cccc(C(F)(F)F)c1 [Ridogrel] the data give log Kow 4.3 and log solubility -4.64 (log10 mol/L).
For C=CCCCCCCCCC(=O)OC [Methyl 10-undecenoate] the data give log solubility -5.398 (log10 mol/L) and log vapor pressure 0.244 (log10 mmHg).
For CCC(C)c1cc(C(C)(C)C)c(O)c(C(C)(C)C)c1 (stereo unspecified) [4-(Butan-2-yl)-2,6-di-tert-butylphenol] the data give log solubility -6.308 (log10 mol/L) and log vapor pressure -2.821 (log10 mmHg).
For CCNC(=O)CCC/C=C\C[C@@H]1[C@@H](/C=C/[C@@H](O)CCc2ccccc2)[C@H](O)C[C@@H]1O [Bimatoprost] the data give log Kow 3.2 and log solubility -4.347 (log10 mol/L).
For COC(=O)c1ccc(C(=O)Nc2cc(Cl)ccc2Cl)cc1N the data give log Kow 4.01 and log solubility -5.79 (log10 mol/L).
For CC[C@@]12CC[C@H]3C4=C(CC[C@@H]3[C@H]1CCC2=O)CC(OC)=CC4 (racemic) the data give log Kow 5.88 and log solubility -5.705 (log10 mol/L) and log vapor pressure -7.05 (log10 mmHg).

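These are experimental values that the OPERA curators gathered from public databases to train and test their QSAR models. A listed value is a point estimate from one report or more. Method, purity and exact conditions of the single measurements are not given. The measured form (salt, isomer or mixture) is not always the one drawn. Unmarked limits or estimates from the upstream databases cannot be ruled out.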